# Bioassay records (PubChem BioAssay)
# Compounds with a hit are over-represented: about 16% of the library has one in this group of screens.
# uPA surface inh = cell surface uPA generation inhibition | cell surface uPA generation assay, qHTS | 0.31% of 330,000 active | Potency, µM (titrated, usually from 38.3 µM), for inactives: at the top dose activity change, negative = inhibition, hits mostly inhibitors; active = well fitted inhibition curve with a large enough effect; inconclusive = small, poorly fitted or top-dose-only effect; inactive = no such curve, though single readings can be large or run the other way; tested in mouse RAW 264.7 cells; note: potency is the fitted concentration of half-maximal effect; % is set by controls: 0 for no effect and ±100 for the full control effect; nearly all actives have a fitted effect of over 55% in size
# TDP1 inh = TDP1 (human) enzyme inhibition; AID 485290; Potency, µM (titrated, usually from 130 µM), inactives show at the top dose activity change, negative = inhibition, usual class: inhibitors; recombinant TDP1, AlphaScreen DNA substrate cleavage; Q9NUW8; 0.28% of 350,000 active; note: potency is the fitted concentration of half-maximal effect; % is set by controls: 0 for no effect and ±100 for the full control effect; nearly all actives have a fitted effect of over 40% in size
#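 E. coli-derived human Tdp1, 1 nM final. Cpd preinc 15 min RT; substrate 15 nM final, 5 min RT; AS bead mix 10 ug/ml final, 10 min RT. Signal loss = tyrosine-FITC cleavage. No-enzyme wells = max signal.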
# miR-21 reporter = raises the signal of a miR-21 reporter; Potency, µM (doses to about 38.3 µM), inactives show top-dose reporter change, positive = more light; HeLa miR-21 FLuc reporter, luciferase, 48 h; AID 2288; 340,000 tested, under 10 active; active = well fitted rising curve with a large enough effect; inconclusive = small, poorly fitted or top-dose-only effect; inactive = no such curve, though single readings can be large or run the other way;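 further: % of control where 0% means no effect; miR-21 action dims this reporter so a rising signal means less miR-21 action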
#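 Luminescence from a firefly luciferase reporter carrying a miR-21 binding site downstream, stably expressed under a CMV promoter in HeLa cells that make miR-21 endogenously, reports miRNA modulation after 48 h compound exposure up to approximately 40uM final.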
# TDP1 cell CPT = growth inhibition of DT40 Tdp1-/-;hTDP1 cells with camptothecin (screen for TDP1 inhibitors); chicken DT40 Tdp1-/-;hTDP1 cells + 20 nM CPT, ATP luminescence, 48 h; Potency, µM (top dose mostly 46.2 µM), for inactives: top-dose activity change, negative = growth inhibition, most hits filed as inhibitors; 12% of 420,000 active; AID 686979; note: potency is the fitted concentration of half-maximal effect; % is set by controls: 0 for no effect and ±100 for the full control effect; nearly all actives have a fitted effect of over 55% in size
#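 Chicken DT40 Tdp1-/- cells stably complemented with human TDP1 were seeded at 400 cells/well in medium containing 20 nM camptothecin, exposed to pin-transferred compounds, and grown at 37 °C for at least 48 hr. Viability was read as ATP luminescence.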
# TDP1 cell noCPT = qHTS for Inhibitors of human tyrosyl-DNA phosphodiesterase 1 (TDP1): qHTS in cells in absence of CPT | DT40 Tdp1-/- hTDP1 cells, no CPT, ATP luminescence, 48 h | Potency, µM (highest dose often 46.2 µM), inactives show at the top dose activity change, negative = growth inhibition, actives largely listed as inhibitors | 15% of 420,000 active | AID 686978, 2013; note: potency is the fitted concentration of half-maximal effect; % is set by controls: 0 for no effect and ±100 for the full control effect; nearly all actives have a fitted effect of over 55% in size
#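 Readout: luminescence from CellTiter-Glo after 30 min in the dark at RT. Cells: DT40 Tdp1-/- with stable hTDP1, 400/well. Exposure: compounds alone, ≥48 hr, 37 °C.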
# * = called active by the depositor; ? = inconclusive; . = not tested or not shown. Unless noted, calls come from the whole dose curve; as a rule, active = well fitted curve in the direction sought with a large enough effect; inconclusive = small, poorly fitted or top-dose-only effect, or another doubt; inactive = no such curve, though single readings can be large; an effect the other way counts as inactive or inconclusive.
1) COc1cc(NC(=O)c2ccc(-c3ccnn3C)c3ccoc23)cc(OC)c1OC
2) COc1cc(NC(=O)c2ccc(-c3cccnc3)c3ccoc23)cc(OC)c1OC
3) CC(C)c1ccc(NC(=O)c2ccc(-c3ccnn3C)c3ccoc23)cc1
4) CN1CCN(C(=O)c2ccc(-c3ccc(F)c(F)c3)c3ccoc23)CC1
5) COc1cc(NC(=O)c2cc(-c3ccco3)on2)cc(OC)c1OC

Compound	1	2	3	4	5
uPA surface inh	.	.	.	.	-2%
TDP1 inh	.	.	.	.	9%
miR-21 reporter	.	.	.	.	10%
TDP1 cell CPT	?	13µM*	16µM*	16µM*	?
TDP1 cell noCPT	21µM*	6.5µM*	21µM*	16µM*	?

6) CSc1nc(N)nc2c1ncn2CC(=O)N1CCN(c2ccccn2)CC1
7) CCc1nnc(SCC(=O)Nc2ccc3c(c2)OCO3)o1
8) CC(C)NC(=O)c1ccc(-c2ccc(F)c(F)c2)c2ccoc12
9) COCCNC(=O)c1ccc(-c2cn[nH]c2)c2ccoc12
10) COc1ccc(-c2cc(C(=O)Nc3cc(OC)c(OC)c(OC)c3)no2)cc1OC

Compound	6	7	8	9	10
uPA surface inh	1%	-4%	.	.	.
TDP1 inh	1%	5%	.	.	4%
miR-21 reporter	.	-7%	.	.	-3%
TDP1 cell CPT	-5%	-28%	26µM*	?	?
TDP1 cell noCPT	-23%	-28%	23µM*	-3%	?

11) COc1cc(NC(=O)c2ccc(-c3ccc(F)c(F)c3)c3ccoc23)cc(OC)c1OC
12) COc1cc(NC(=O)c2ccc(-c3cn[nH]c3)c3ccoc23)cc(OC)c1OC
13) CC(C)NC(=O)c1ccccc1-c1ccccc1
14) O=C(O)c1ccc(COc2ccc3ccccc3c2/C=C2/NC(=O)N(c3ccccc3)C2=O)cc1
15) Cn1c(=O)c(C(=O)NCCCc2ccccc2)c(O)c2ccccc21

Compound	11	12	13	14	15
uPA surface inh	.	.	-2%	.	6%
TDP1 inh	.	.	3%	-2%	3%
miR-21 reporter	.	.	-3%	-6%	0%
TDP1 cell CPT	4.1µM*	12µM*	2%	-20%	-15%
TDP1 cell noCPT	4.1µM*	13µM*	-1%	?	?

16) [N-]=[N+]=NC[C@H](Cc1ccccc1)N1CC[C@@H](O)CCC1=O
17) CC(C)(C)[C@H]1CCC(=O)N([C@H](CSc2ccccc2)Cc2ccccc2)CC1
18) CN1CCC(=O)N(C(CSc2ccc(Br)cc2)Cc2ccccc2)CC1 (centres undefined)
19) CC(=O)Nc1ccc(SC[C@H](Cc2ccccc2)N2CC[C@@H](O)CCC2=O)cc1
20) [N-]=[N+]=NC[C@H](Cc1ccccc1)N1CC[C@@H](OCc2ccccc2)CCC1=O

Compound	16	17	18	19	20
uPA surface inh	-6%	5%	.	4%	8%
TDP1 inh	.	.	14%	2%	.
miR-21 reporter	-1%	-6%	.	.	-7%
TDP1 cell CPT	2%	23µM*	.	-22%	?
TDP1 cell noCPT	-4%	?	.	-6%	?

21) CC(C)(C)[C@H]1CCC(=O)N([C@H](CN=[N+]=[N-])Cc2ccccc2)CC1
22) CC(C)(C)[C@H]1CCC(=O)N([C@H](CSc2ccc(Br)cc2)Cc2ccccc2)CC1
23) O=C1CCC(OCc2ccccc2)CCN1[C@H](CSc1ccccc1)Cc1ccccc1 (some centres undefined)
24) COc1ccc(N2CCN(C(=O)CSc3nnc(C)c(=O)[nH]3)CC2)cc1
25) Cc1ccc(SC[C@H](Cc2ccccc2)N2CC[C@@H](C)CCC2=O)cc1

Compound	21	22	23	24	25
uPA surface inh	5%	5%	.	-2%	-16%
TDP1 inh	.	0%	.	-14%	.
miR-21 reporter	3%	.	.	1%	1%
TDP1 cell CPT	14µM*	18µM*	?	-7%	11µM*
TDP1 cell noCPT	20µM*	14µM*	16µM*	-15%	13µM*

# Reprinted at random: 3 records from the list, in no set order.
21) CC(C)(C)[C@H]1CCC(=O)N([C@H](CN=[N+]=[N-])Cc2ccccc2)CC1
24) COc1ccc(N2CCN(C(=O)CSc3nnc(C)c(=O)[nH]3)CC2)cc1
25) Cc1ccc(SC[C@H](Cc2ccccc2)N2CC[C@@H](C)CCC2=O)cc1

Compound	21	24	25
uPA surface inh	5%	-2%	-16%
TDP1 inh	.	-14%	.
miR-21 reporter	3%	1%	1%
TDP1 cell CPT	14µM*	-7%	11µM*
TDP1 cell noCPT	20µM*	-15%	13µM*

# (next part)
26) COc1cc2[nH]c(=S)nc(NCc3cccs3)c2cc1OC
27) COC(=O)c1ccc2c(c1)C(=O)/C(=C/c1ccc(C)cc1)O2
28) Cc1cc(Sc2nc(N)ncc2[N+](=O)[O-])ncn1
29) Cc1cc(Sc2ncnc(N)c2[N+](=O)[O-])ncn1
30) O=C(CN1C(=O)COc2ccc(Cl)cc21)Nc1ccc(F)cc1
31) CCc1cccc(NC(=O)CN2C(=O)COc3ccc(S(=O)(=O)Nc4ccccc4)cc32)c1
32) CSc1cccc(NC(=O)CN2C(=O)COc3ccc(Cl)cc32)c1

Compound	26	27	28	29	30	31	32
uPA surface inh	1%	2%	-13%	.	.	.	.
TDP1 inh	6%	5%	.	.	-6%	6%	-2%
miR-21 reporter	12%	-12%	10%	?	-3%	18%	13%
TDP1 cell CPT	-29%	18µM*	0.73µM*	0.29µM*	?	?	?
TDP1 cell noCPT	23µM*	13µM*	1.3µM*	0.92µM*	?	23µM*	21µM*
